Experimental data as given in patent US8524861B2, “Treatment of bacterial infections” (priority 2004, dated 2013).

System: Pseudomonas aeruginosa (ATCC strain 9027)
Assay type: cell-based
Settings: summary in description
Method: Bacterial Stocks—ATCC derived stock bacteria were obtained from Oxoid Limited. Pseudomonas aeruginosa (ATCC strain 9027) or Staphylococcus aureus (ATCC strain 6538P) were obtained in ‘Cultiloop’ format. Stocks were prepared by inoculating 20 ml of LB broth with a single Cultiloop, and incubating overnight at 37° C. Cells present after overnight incubation were harvested by removing larger aggregates by centrifugation (3000 g, 10 minutes), and withdrawing 16 ml of the supernatant, which was likely to contain mainly planktonic bacteria. To this, 4 ml of sterile glycerol was added (the latter having been sterilised by autoclaving). […]
The peptides were examined for antibacterial efficacy against Staphylococcus aureus. […] A vial of planktonic bacterial stock was thawed in a 37° C. incubator and diluted to the level previously determined which would produce log phase growth after overnight incubation (see above). […] After overnight growth, the concentration of bacteria in individual wells was assessed by measuring absorbance at 620 nm, in a microplate spectrophotometer. The average absorbance of wells for specific concentrations of peptides was calculated, and from this the percentage inhibition (relative to untreated wells) was also calculated and plotted against concentration (along with an estimate of error on that % inhibition). […]

For `CC(C)C[C@H](NC(=O)[C@H](CC(C)C)NC(=O)[C@H](CCCNC(=N)N)NC(=O)[C@H](CCCCN)NC(=O)[C@H](CCCNC(=N)N)NC(=O)[C@H](CC(C)C)NC(=O)[C@H](CCCCN)NC(=O)[C@H](CCCNC(=N)N)NC(=O)[C@H](CC(C)C)NC(=O)[C@H](Cc1c[nH]cn1)NC(=O)[C@H](CO)NC(=O)[C@H](C)NC(=O)[C@H](CC(C)C)NC(=O)[C@H](CCCNC(=N)N)NC(=O)[C@@H](NC(=O)[C@H](CCCNC(=N)N)NC(=O)[C@H](CC(C)C)NC(=O)[C@H](CCC(=O)O)NC(=O)[C@H](CCC(=O)O)NC(=O)[C@@H](NC(=O)[C@H](CO)NC(=O)[C@@H](N)CCC(N)=O)[C@@H](C)O)C(C)C)C(N)=O` [GIN 11], the “Effectiveness against Pseudomonadales, in particular P. aeruginosa, in words” value was “particularly effective”.
